Measurements as given in patent US20210122804A1, “PEPTIDE LIGANDS FOR BINDING TO CD38” (BicycleTx Limited, priority 2018, published 2021).

The chains behind the UniProt entries cited, without tags or fusion partners. Residues count along the entry.
UniProt P28907, 43-300 limits assumed: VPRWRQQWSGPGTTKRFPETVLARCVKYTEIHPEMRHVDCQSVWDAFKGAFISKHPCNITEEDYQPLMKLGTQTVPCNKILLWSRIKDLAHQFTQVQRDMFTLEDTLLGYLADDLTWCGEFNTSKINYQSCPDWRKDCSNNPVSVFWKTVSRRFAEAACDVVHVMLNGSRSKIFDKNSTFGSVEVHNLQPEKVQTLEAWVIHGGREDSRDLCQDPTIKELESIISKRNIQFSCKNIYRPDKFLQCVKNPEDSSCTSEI

Experiments:
human CD38 [1] = target: T1, human CD38 (human, UniProt P28907 43-300, limits assumed); test: fluorescence polarisation competition; tracer m10
T1 construct: construct used is not described; also called hCD38

human CD38 [2] = target: T1, human CD38; test: fluorescence polarisation competition; tracer m11

Binder | Ki (human CD38 [1]) [nM] | Ki (human CD38 [2]) [nM]
ACINYANICLDTEKMCA (three Cys thioether-linked to TBMB scaffold, bicyclic) [66-18-N001] | 6890 | 
ACYWNPFMGCYSCA (three Cys thioether-linked to TATA scaffold, bicyclic) [66-50-12-N001] |  | 315
ACYWNPFMGCYTCA (three Cys thioether-linked to TATA scaffold, bicyclic) [66-50-01-N001] |  | 393
ACYWNPFTGCYSCA (three Cys thioether-linked to TATA scaffold, bicyclic) [66-50-02-N001] |  | 97.8
ACYWNPFSGCYSCA (three Cys thioether-linked to TATA scaffold, bicyclic) [66-50-07-N001] |  | 498
ACFELDGTCFDWAQECA (three Cys thioether-linked to TBMB scaffold, bicyclic) [66-01-N002] | 1180 | 
ACVNFGSVCWDPDSRCA (three Cys thioether-linked to TBMB scaffold, bicyclic) [66-02-N002] | 3660 | 
ACVPCADFPIWGCA (three Cys thioether-linked to TBMB scaffold, bicyclic) [66-03-04-N001] | 58.5 | 
ACVPCADFPIWYCA (three Cys thioether-linked to TBMB scaffold, bicyclic) [66-03-00-N004] | 35.3 | 
ACVPCADFPIWWCA (three Cys thioether-linked to TBMB scaffold, bicyclic) [66-03-00-N005] | 110 | 
ACTPCADFPIWSCA (three Cys thioether-linked to TBMB scaffold, bicyclic) [66-03-01-N001] | 471 | 
ACVHCADFPIWGCA (three Cys thioether-linked to TBMB scaffold, bicyclic) [66-03-03-N001] | 61 | 
ACVMCADFPIWGCA (three Cys thioether-linked to TBMB scaffold, bicyclic) [66-03-05-N001] | 155 | 
ACTPCADFPIWYCA (three Cys thioether-linked to TBMB scaffold, bicyclic) [66-03-06-N001] | 64 | 
ACVACADFPIWGCA (three Cys thioether-linked to TBMB scaffold, bicyclic) [66-03-08-N001] | 174 | 
ACTPCADFPIYGCA (three Cys thioether-linked to TBMB scaffold, bicyclic) [66-03-09-N001] | 1050 | 
ACVKCADFPIWGCA (three Cys thioether-linked to TBMB scaffold, bicyclic) [66-03-11-N001] | 41.3 | 
ACIPCADFPIWGCA (three Cys thioether-linked to TBMB scaffold, bicyclic) [66-03-16-N001] | 114 | 
ACTPCADFPIWGCA (three Cys thioether-linked to TBMB scaffold, bicyclic) [66-03-N002] | 198 | 
ACTPCADFPILTCA (three Cys thioether-linked to TBMB scaffold, bicyclic) [66-03-07-N001] | 257 | 
ACTPCADFPIHTCA (three Cys thioether-linked to TBMB scaffold, bicyclic) [66-03-02-N001] | 995 | 
ACTPCADFPILDCA (three Cys thioether-linked to TBMB scaffold, bicyclic) [66-03-10-N001] | 1700 | 
CVPCADFPIWGC (N-terminal acetyl (Ac); three Cys thioether-linked to TBMB scaffold, bicyclic) [66-03-04-N002] | 152 | 
CVKCADFPIWGC (N-terminal acetyl (Ac); three Cys thioether-linked to TBMB scaffold, bicyclic) [66-03-11-N002] | 298 | 
CTPCADFPIWYC (N-terminal acetyl (Ac); three Cys thioether-linked to TBMB scaffold, bicyclic) [66-03-06-N002] | 106 | 

Binder | Ki (human CD38 [1]) [nM] | Ki (human CD38 [2]) [nM]
ACTPCADMPIWTCA (three Cys thioether-linked to TBMB scaffold, bicyclic) [66-03-15-N001] | 274 | 
ACIPCADFPISVCA (three Cys thioether-linked to TBMB scaffold, bicyclic) [66-03-24-N003] | 170 | 
ACVPCADFPISFCA (three Cys thioether-linked to TBMB scaffold, bicyclic) [66-03-25-N002] | 208 | 
ACIPCADFPISFCA (three Cys thioether-linked to TBMB scaffold, bicyclic) [66-03-26-N003] | 160 | 
ACVPCADFPISVCA (three Cys thioether-linked to TBMB scaffold, bicyclic) [66-03-27-N003] | 143 | 
ACVPCADFPIFTCA (three Cys thioether-linked to TBMB scaffold, bicyclic) [66-03-28-N002] | 44.5 | 
ACIPCADFPIFTCA (three Cys thioether-linked to TBMB scaffold, bicyclic) [66-03-29-N003] | 139 | 
ACDFTMPCENWKYCA (three Cys thioether-linked to TBMB scaffold, bicyclic) [66-05-07-N001] | 2530 | 
ACDFTMPCPNWNACA (three Cys thioether-linked to TBMB scaffold, bicyclic) [66-05-09-N001] | 3950 | 
ACDFTMPCQMWEQCA (three Cys thioether-linked to TBMB scaffold, bicyclic) [66-05-N002] | 4060 | 
ACIFDYDCDAWSACA (three Cys thioether-linked to TBMB scaffold, bicyclic) [66-06-N002] | 7250 | 
ACFWLDGECFDWNHECA (three Cys thioether-linked to TBMB scaffold, bicyclic) [66-08-01-N001] | 43.3 | 
CFWLDGECFDWNHEC (N-terminal acetyl (Ac); three Cys thioether-linked to TBMB scaffold, bicyclic) [66-08-01-N004] | 99 | 
ACFSLDGECFDLSGECA (three Cys thioether-linked to TBMB scaffold, bicyclic) [66-08-02-N001] | 305 | 
ACFKLDGVCFDLFHECA (three Cys thioether-linked to TBMB scaffold, bicyclic) [66-08-04-N001] | 3820 | 
ACFMLDGECFDLNKECA (N-terminal acetyl (Ac); three Cys thioether-linked to TBMB scaffold, bicyclic) [66-08-05-N001] | 1370 | 
ACFTLDGECFDWDAECA (three Cys thioether-linked to TBMB scaffold, bicyclic) [66-08-07-N001] | 230 | 
ACFELDGSCFDFDHECA (three Cys thioether-linked to TBMB scaffold, bicyclic) [66-08-09-N001] | 611 | 
ACFTLDGECFDVNRECA (three Cys thioether-linked to TBMB scaffold, bicyclic) [66-08-13-N001] | 905 | 
ACFWLDHECFDWTHECA (three Cys thioether-linked to TBMB scaffold, bicyclic) [66-08-15-N001] | 258 | 
ACFQLDGECFDIYRECA (three Cys thioether-linked to TBMB scaffold, bicyclic) [66-08-17-N001] | 245 | 
ACFELDGNCFDWTHECA (three Cys thioether-linked to TBMB scaffold, bicyclic) [66-08-18-N001] | 980 | 
ACFELDGDCFDWTHECA (three Cys thioether-linked to TBMB scaffold, bicyclic) [66-08-34-N001] | 1620 | 
ACFHLDGECFDYEHECA (three Cys thioether-linked to TBMB scaffold, bicyclic) [66-08-20-N001] | 2160 | 
ACFSLDGECFDIASECA (three Cys thioether-linked to TBMB scaffold, bicyclic) [66-08-22-N001] | 1040 | 

Binder | Ki (human CD38 [1]) [nM] | Ki (human CD38 [2]) [nM]
ACFQLDGECFDTSHECA (three Cys thioether-linked to TBMB scaffold, bicyclic) [66-08-24-N001] | 2970 | 
ACFVLDGECFDYYEECA (three Cys thioether-linked to TBMB scaffold, bicyclic) [66-08-27-N001] | 1220 | 
ACFRLDDECFDWTHECA (three Cys thioether-linked to TBMB scaffold, bicyclic) [66-08-28-N001] | 1160 | 
ACFRLDGVCFDLDDECA (three Cys thioether-linked to TBMB scaffold, bicyclic) [66-08-29-N001] | 988 | 
ACFRLDGECFDMGQECA (three Cys thioether-linked to TBMB scaffold, bicyclic) [66-08-30-N001] | 6950 | 
ACFTLDGACFDLDGECA (three Cys thioether-linked to TBMB scaffold, bicyclic) [66-08-31-N001] | 821 | 
ACFLLDGECFDWMQECA (three Cys thioether-linked to TBMB scaffold, bicyclic) [66-08-33-N001] | 409 | 
ACFLLDGECFDWAQECA (three Cys thioether-linked to TBMB scaffold, bicyclic) [66-08-43-N001] | 131 | 
ACFHLDGVCFDWTHECA (three Cys thioether-linked to TBMB scaffold, bicyclic) [66-08-36-N001] | 558 | 
ACFHLDGECFDLENTCA (three Cys thioether-linked to TBMB scaffold, bicyclic) [66-08-44-N001] | 620 | 
ACFHLDGECFDLAKTCA (three Cys thioether-linked to TBMB scaffold, bicyclic) [66-08-45-N001] | 8190 | 
ACFELDGECFHFGEPCA (three Cys thioether-linked to TBMB scaffold, bicyclic) [66-08-46-N001] | 1040 | 
ACFVLDGECFEIGERCA (three Cys thioether-linked to TBMB scaffold, bicyclic) [66-08-47-N001] | 238 | 
ACFTLDGECFDLDGWCA (three Cys thioether-linked to TBMB scaffold, bicyclic) [66-08-48-N001] | 178 | 
ACFLLDGECFDLIGECA (three Cys thioether-linked to TBMB scaffold, bicyclic) [66-08-49-N001] | 1360 | 
ACFELDGECFSFPGTCA (three Cys thioether-linked to TBMB scaffold, bicyclic) [66-08-50-N001] | 196 | 
ACFELDGECFSWPYPCA (three Cys thioether-linked to TBMB scaffold, bicyclic) [66-08-51-N001] | 4750 | 
ACFWLDGECFDLGGQCA (three Cys thioether-linked to TBMB scaffold, bicyclic) [66-08-53-N001] | 119 | 
ACFELDGECFDLDNQCA (three Cys thioether-linked to TBMB scaffold, bicyclic) [66-08-54-N001] | 477 | 
ACFWLDGECFDLYGGCA (three Cys thioether-linked to TBMB scaffold, bicyclic) [66-08-55-N001] | 105 | 
ACFRLDGECFDISNECA (three Cys thioether-linked to TBMB scaffold, bicyclic) [66-08-56-N001] | 1150 | 
ACFELDGECFNIGSKCA (three Cys thioether-linked to TBMB scaffold, bicyclic) [66-08-57-N001] | 1100 | 
ACFWLDGECFDFGGCA (three Cys thioether-linked to TBMB scaffold, bicyclic) [66-08-58-N001] | 154 | 
